Publication PMC5618409, “Sequence Analysis, Kinetic Constants, and Anion Inhibition Profile of the Nacrein-Like Protein (CgiNAP2X1) from the Pacific Oyster Magallana gigas (Ex-Crassostrea gigas)” (Marine Drugs, 2017)

Protein sequences, listed by entry. Tags and fused reporters are not part of them. Residues count along the entry.
UniProt A0A8W8INI3, 23-318 limits assumed: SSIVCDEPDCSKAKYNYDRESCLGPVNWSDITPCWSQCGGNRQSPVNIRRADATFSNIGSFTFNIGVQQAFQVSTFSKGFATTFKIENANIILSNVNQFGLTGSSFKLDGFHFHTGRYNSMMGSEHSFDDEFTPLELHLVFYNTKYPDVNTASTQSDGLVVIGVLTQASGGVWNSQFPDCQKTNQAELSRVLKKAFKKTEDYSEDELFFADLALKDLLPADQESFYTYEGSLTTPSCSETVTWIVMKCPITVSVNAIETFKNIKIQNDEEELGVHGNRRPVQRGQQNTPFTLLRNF

Target: CgiNAP2X1 (Magallana gigas, UniProt A0A8W8INI3)
Assay: stopped-flow CO2 hydration assay
Format: biochemical
Conditions: read-out: KIs [mM] ^2 / CgiNAP2X1; CO2 1.7-17 mM; 20 °C; pH 7.5 (table title), methods give 20 mM TRIS pH 8.3; 15 min preincubation

`O=[As](O)(O)c1ccccc1` showed a Ki of 0.087 mM.
